Reference: paper PMC7461649 (Journal of medicinal chemistry, 2020)

Amino acid sequences for entries named in this document (tags omitted). A change or cut given only in a name is not applied to a line headed by its entry.
UniProt A0A125SA05: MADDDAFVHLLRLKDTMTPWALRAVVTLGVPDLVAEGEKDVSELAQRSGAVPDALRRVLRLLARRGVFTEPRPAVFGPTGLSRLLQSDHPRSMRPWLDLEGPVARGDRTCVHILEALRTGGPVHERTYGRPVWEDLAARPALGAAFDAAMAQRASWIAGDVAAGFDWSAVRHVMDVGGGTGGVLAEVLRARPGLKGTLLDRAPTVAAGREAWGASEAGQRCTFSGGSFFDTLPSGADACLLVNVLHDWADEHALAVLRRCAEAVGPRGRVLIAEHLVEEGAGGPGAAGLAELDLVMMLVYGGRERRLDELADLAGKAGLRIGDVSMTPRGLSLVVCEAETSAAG

Molecular target: TnmH (Streptomyces sp. CB03234, UniProt A0A125SA05)
Test: X-ray crystal structure, […] Å
Format: binding
Conditions: SAM soaked into TnmH crystals; homodimer

`C[S+](CC[C@H](N)C(=O)O)C[C@H]1O[C@@H](n2cnc3c(N)ncnc32)[C@H](O)[C@@H]1O` (stereo partly shown) [SAM] was tested, and the “X-ray crystal structure, 2.73 Å” value was “holo-TnmH X-ray crystal structure in complex with SAM (PDB entry 6CLX)”.
